The source of these data is patent publication US4235916A, “2-Methylthio-6-fluoro-9-(1-methyl-4-piperidylidene)-thioxanthene and salts thereof, neuroleptic compositions and method of use” (Kefalas A/S, priority 1977, dated 1980).

Test [1] can be described thus: Catalepsy wire mesh, rat, max. To be noted: catalepsy ED50 (s.c.) / amphetamine antagonism ED50 (i.p.), rats. In kind it is in vivo, male. On the procedure: Catalepsy wire mesh, rat, max. (ED50 mg/kg s.c.)
A vertical wire netting (50 cm×49 cm). The meshes (openings) of the netting are square (1 cm×1 cm). The wire diameter is 2 mm.
The animals are labeled and used in groups of five. The test substance is injected subcutaneously (s.c.) (5 ml/kg) at 4 dose levels selected from the fixed dose scale.
The animals are placed in the middle of the vertical wire netting 60, 120, 180, 240, 300 and 360 minutes after injection of the test compound. The animals are considered cetaleptic when they remain immobile during a period of 15 seconds. This cataleptic reaction is designated +. If the rats are "atonic" and passively slides down the wire mesh they are considered not cataleptic. If the animals climb up and down the wire mesh they are nor cataleptic. In both situations the designation - is used.

For another test, the target named is Muscarinic. The experiment in a line: Muscarinic affinity binding (3H-PrBCM, whole brain P2 fraction). Further details: species or system Rats. To be noted: displacement of specific 3H-PrBCM binding by 50%; rat brain, pH 7.4, 30° C.; read-out: Muscarine affinity (IC50). How it is done: Muscarinic affinity binding
Sodium thiosulphate 10 mM (2.48 g/1000 ml) ^3 H-PrBCM (N-2'-chloroethyl-N-[2", 3"-^3 H2 ] propyl-2-aminoethylbenzilate,spec. act. ~28 Ci/mM).
A rat is killed by a blow on the head and exsanguinated. The whole brain is removed and homogenized in 10 volumes of ice cold 0.32 M sucrose with a hand homogenizer. The homogenate is centrifuged at 600 g for 10 minutes (4° C.) and the pellet discarded. The supernatant is then centrifuged at 25000 g for 55 minutes (4° C.). The pellet fraction (P2) is resuspended in the same volume of 0.32 M sucrose as previously used and stored on ice.
The aziridinium ion of ^3 H-propylbenzilyllcholine mustard (^3 H-PrBCM) is prepared by cyclization at a concentration of 130 nM in 15 mM Na-phosphate buffer (pH 7.4) for 50 minutes at 20° C. The reaction is terminated by addition of 100 volumes of ice cold buffer.
The incubation is continued for 15 minutes and stopped by addition of 20 ml 100 mM phosphate buffer containing 10 mM sodium thiosulphate. The samples are filtered through Whatman GF/C glass fiber filters and washed with 30 ml ice cold 100 mM phosphate buffer. The filters with synaptosomes are transferred to scintillation vials and the radio-activity measured by liquid scintillation counting after addition of 10 ml Instal-Gel (Packard Inst.). All experiments are performed in triplicate. […]

`CN(C)CC/C=C1/c2ccccc2Sc2ccc(Cl)cc21` [chlorprothixene]: the “Ratio Catalep./Amphetam. antag.” value in test [1] turned out to be 0.66. Further, on Muscarinic, the IC50 – broadly, the concentration needed to halve the response being measured – was determined as 0.11 µM.
For `OCCN1CCN(CCC=C2c3ccccc3Sc3ccc(Cl)cc32)CC1` [clopenthixol], the “Ratio Catalep./Amphetam. antag.” value in test [1] is recorded as 1.2. The IC50 at Muscarinic amounted to 6 µM.
